Ab-14 light chain CDR variants: yeast mating affinities

All variants were tested on one target, the spike HR2 peptide PDVDLGDISGINAS (SARS-CoV-2).

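The starting antibody came from a phage panning campaign against this peptide. Library AAYL50 holds single substitutions and randomly drawn double and triple substitutions in the CDRs. In AlphaSeq, yeast of one mating type display the scFv and yeast of the other type display the target. Pairs that bind mate more often; barcode pairs of the diploids are counted by sequencing. Each replicate has its own calibration line, from reference interactions of the BCL2 family. Each pool was mated in three replicate cultures.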

The variants keep the heavy chain, the linker and the frameworks of Ab-14 (scFv order VH, three GGGGS repeats, VL).
VH: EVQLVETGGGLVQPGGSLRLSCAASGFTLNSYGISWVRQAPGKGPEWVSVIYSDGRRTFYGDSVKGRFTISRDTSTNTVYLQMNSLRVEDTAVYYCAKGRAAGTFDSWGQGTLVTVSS
VL: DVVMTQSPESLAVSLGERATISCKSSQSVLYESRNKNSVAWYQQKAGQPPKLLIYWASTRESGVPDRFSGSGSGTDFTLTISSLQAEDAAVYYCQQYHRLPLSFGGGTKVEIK

Variants are written as CDR1, CDR2 and CDR3 of the light chain (limits as in the source). Parent: KSSQSVLYESRNKNSVA, WASTRES, QQYHRLPLS.
All variants listed here change K36 of the VL, counted from its first residue.
Numbers give log10(Kd / nM), so 0 is 1 nM and 3 is 1 µM. Smaller is tighter.
Averages over replicates are reported, and they cover detected replicates only.
A pair that was not seen in that replicate is written "nd"; this usually means weak binding, but a binder can also be missed.
Three control strains display no target. For library AAYL50, 18% of the pairings with them gave a signal, with a median of 4.19 and one signal in twenty below 2.99, so weak values seen in few replicates may be background. For each scFv, signals with the empty controls are counted beside the result, with their mean in brackets.
Parent in this assay: reference entry 0.65, copy in this library 1.68.

| CDR-L1 | CDR-L2 | CDR-L3 | log10 Kd, replicates | log10 Kd (nM), mean | empty controls |
|---|---|---|---|---|---|
| KSRQSVLYESRNRNSVA | WASTRES | QQYHRNPLS | nd / 2.64 / nd | 2.64 | 0/9 |
| KSSQSVLYESRNINSVA | WASTEES | QQYYRLPLS | nd / nd / nd | nd | 0/9 |
| KSSQSVLYESRNWNSVA | LASTREF | QQYHRLPLS | 3.52 / 3.41 / 3.79 | 3.57 | 7/9 (4.59) |
| VSSQSVLYESRNPNSVF | WASTRES | QQYHRLPLS | nd / 4.36 / 3.73 | 4.05 | 0/9 |
| KSSQSVQYESRNENSVA | WASTRES | QQYHRLPLS | 1.69 / 2.11 / 1.96 | 1.92 | 0/9 |
| KSSQSVLYESRNGNSWA | WASTRES | QQYHRLPSS | nd / nd / nd | nd | 2/9 (4.85) |
| KSSQSVLYESRNQNSNA | WFSTRES | QQYHRLPLS | nd / nd / nd | nd | 0/9 |
| KSSQSVLYESRNVNSVA | WASPRES | VQYHRLPLS | nd / nd / nd | nd | 0/9 |
| VSSQSVLYESRNDNSVA | WASTRES | SQYHRLPLS | nd / nd / nd | nd | 2/9 (4.71) |
| KSSQSVCYESRNGNSVA | WASTRES | QQYHRLPLS | 3.65 / nd / nd | 3.65 | 1/9 (4.80) |
| KSSQSVLYESYNINSVA | WASTRES | QQYHREPLS | 4.03 / nd / 5.55 | 4.79 | 2/9 (4.56) |
| KSSNSVLYESRNLNSVA | WASTRES | QQYHRLPLS | 3.39 / nd / 5.27 | 4.33 | 0/9 |
| KSSQSILYESRNYNSVA | WASTRES | QQYHRLPFS | 0.73 / 0.87 / 0.80 | 0.80 | 5/9 (4.03) |
| KSSNSVLYESRNTNSVA | WASNRES | QQYHRLPLS | nd / nd / nd | nd | 0/9 |
| KSSQSVLYESRNHNSVA | WASTRES | QTYFRLPLS | 2.25 / 2.01 / 3.24 | 2.50 | 0/9 |
| KSSQSVWYESRNMNSVA | WNSTRES | QQYHRLPLS | 2.67 / 2.94 / 3.08 | 2.90 | 2/9 (4.96) |
| KSSQSVLYESRNANSVA | WASTRES | QQYHRLPLS | 1.18 / 1.21 / 1.33 | 1.24 | 0/9 |
| KSSNSVLYESRNENSVA | WWSTRES | QQYHRLPLS | nd / nd / nd | nd | 1/9 (3.05) |
| KSSQSVPYESRNINSVF | WASTRES | QQYHRLPLS | nd / nd / nd | nd | 1/9 (2.43) |
| KSSQSVLYESRNFNSVA | WAITRES | TQYHRLPLS | nd / nd / nd | nd | 1/9 (3.66) |
| KSSQSVLYESRNANSVA | WASTREA | QQYHRLPLS | 0.66 / 0.93 / 0.68 | 0.75 | 0/9 |
| KSSQSVLYESRNANSVA | WASTRES | QQYRRLGLS | nd / nd / nd | nd | 0/9 |
| KSSQSVGYESRNPNSVA | WASTRES | QQYHRLDLS | nd / nd / nd | nd | 0/9 |
| ESSQSVLYESRNVISVA | WASTRES | QQYHRLPLS | nd / nd / nd | nd | 0/9 |
| KIEQSVLYESRNDNSVA | WASTRES | QQYHRLPLS | 0.02 / 0.35 / 0.09 | 0.15 | 0/9 |
| KSSQSVLYEHRNRNSVA | WASTRES | QQQHRLPLS | nd / nd / nd | nd | 0/9 |
| KSSQSVLYWSRNNNSVA | WASQRES | QQYHRLPLS | 1.61 / 2.19 / 1.30 | 1.70 | 0/9 |
| KSSQSELYCSRNANSVA | WASTRES | QQYHRLPLS | 1.97 / 1.88 / 1.99 | 1.95 | 0/9 |
| KKSQSVLYESRNGNSVA | WASARES | QQYHRLPLS | 5.63 / 3.98 / 4.10 | 4.57 | 2/9 (3.74) |
| KSHQSVLYESRNCNSVA | WASTRES | QQYYRLPLS | 1.38 / 1.23 / 1.28 | 1.30 | 1/9 (5.60) |
| KSSQSVLYESRNRNSVA | WASTRES | QQYHRYPLS | nd / nd / nd | nd | 1/9 (2.71) |
| KNSQAVLYESRNGNSVA | WASTRES | QQYHRLPLS | 1.31 / 1.55 / 1.59 | 1.48 | 0/9 |
| KSSHSVLYESRNENSVA | WASTREV | QQYHRLPLS | 0.12 / 0.35 / 0.28 | 0.25 | 1/9 (5.02) |
| KSSQSVLYESRNHNSVA | TASSRES | QQYHRLPLS | 2.64 / 2.56 / 2.77 | 2.66 | 3/9 (4.31) |
| KSSQPVLYESRNLNSVH | WASTRES | QQYHRLPLS | nd / nd / nd | nd | 2/9 (3.88) |
| KKSQSVLYESRNINSVI | WASTRES | QQYHRLPLS | nd / nd / nd | nd | 0/9 |
| KSSQSVLYESDNFNSVA | WASTRES | QHYHRLPLS | 0.89 / 1.04 / 1.15 | 1.03 | 2/9 (4.24) |
| KSSQSVLYESRNVLSVA | WASTRES | QQYHRLPYS | 3.81 / 3.70 / 5.32 | 4.28 | 3/9 (4.26) |
| KSSQSVLYESRNMNSVA | WASTRES | QQVHRLPLS | 0.05 / 0.47 / 0.23 | 0.25 | 1/9 (2.08) |
| KSRQSVLYESRNLNSVA | WASMRES | QQYHRLPLS | 0.85 / 1.31 / 1.02 | 1.06 | 5/9 (4.02) |
| KSSQSVLYASRNFNSVA | WASTRQS | QQYHRLPLS | nd / 1.35 / nd | 1.35 | 0/9 |
| KSSTSVLYPSRNFNSVA | WASTRES | QQYHRLPLS | 0.60 / 0.84 / 0.71 | 0.72 | 1/9 (3.42) |
| KSSQSVLYESRNCNSVA | WRSTRES | QQYHRLPGS | nd / nd / nd | nd | 3/9 (4.12) |
| KSSQSVLYESRNMNSVA | WISTYES | QQYHRLPLS | 4.99 / nd / 4.21 | 4.60 | 0/9 |
| KSSQSVLYLSRNPNSVA | WASTRES | QQYHRLPLS | 0.76 / 0.97 / 0.90 | 0.88 | 0/9 |
| KSSQSVLYESRNANSVA | WASTREQ | QQYHRLPLS | 1.28 / 1.42 / 1.43 | 1.37 | 6/9 (4.47) |
| KSSQSVLYESRDVESVA | WASTRES | QQYHRLPLS | 1.38 / 1.31 / 1.43 | 1.37 | 1/9 (3.72) |
| KSSQSVLYESRNLNSVA | WASTREG | QQYHMLPLS | 0.85 / 1.58 / 1.11 | 1.18 | 1/9 (4.09) |
| KSSQSVLYESRFNNSVA | WASTRES | QQYHRLPLS | 1.13 / 1.26 / 1.36 | 1.25 | 3/9 (4.33) |
| KSSQSVLYESRNQNSVA | WASTRES | QQYHRLPLS | 2.20 / 2.19 / 2.53 | 2.31 | 4/9 (4.14) |
| KSSQSVLYESRNVNSSA | WASTRCS | QQYHRLPLS | nd / nd / nd | nd | 1/9 (5.29) |
| KSSQSVLYESRNQNSVA | WASTRRS | QQQHRLPLS | nd / nd / nd | nd | 3/9 (4.19) |

The opening 4 entries, copied out:

| CDR-L1 | CDR-L2 | CDR-L3 | log10 Kd, replicates | log10 Kd (nM), mean | empty controls |
|---|---|---|---|---|---|
| KSRQSVLYESRNRNSVA | WASTRES | QQYHRNPLS | nd / 2.64 / nd | 2.64 | 0/9 |
| KSSQSVLYESRNINSVA | WASTEES | QQYYRLPLS | nd / nd / nd | nd | 0/9 |
| KSSQSVLYESRNWNSVA | LASTREF | QQYHRLPLS | 3.52 / 3.41 / 3.79 | 3.57 | 7/9 (4.59) |
| VSSQSVLYESRNPNSVF | WASTRES | QQYHRLPLS | nd / 4.36 / 3.73 | 4.05 | 0/9 |

From the AlphaSeq antibody data of Engelhart et al. 2022 (doi:10.1038/s41597-022-01779-4), copy in the FLAb collection.